Measurements from ChEMBL document CHEMBL4321856.

Assay: Selectivity index, ratio of Ki for displacement of [3H]DPDPE from rat DOR expressed in CHO cell membranes incubated for 30 mins by liquid scintillation counting to Ki for displacement of [3H]U69593 from human KOR expressed in CHO cell membranes incubated for 30 mins by liquid scintillation counting

Compound | Ratio Ki
COc1ccc2c3c1O[C@H]1[C@@]4(OC)CC[C@@]5(C[C@@H]4c4ccc(N6CCCCC6)cc4)[C@@H](C2)N(CC2CC2)CC[C@]315 | 25.5
COc1ccc2c3c1O[C@H]1[C@@]4(OC)CC[C@@]5(C[C@@H]4c4ccc(NC(=O)Cc6ccccc6)cc4)[C@@H](C2)N(CC2CC2)CC[C@]315 | 6.2
COc1ccc2c3c1O[C@H]1[C@@]4(OC)CC[C@@]5(C[C@@H]4c4ccc(/N=N/c6ccc(O)cc6)cc4)[C@@H](C2)N(CC2CC2)CC[C@]315 | > 3.1
COc1ccc2c3c1O[C@H]1[C@@]4(OC)CC[C@@]5(C[C@@H]4c4ccc(NCCCN(C)C)cc4)[C@@H](C2)N(CC2CC2)CC[C@]315 | 20.5
COc1ccc2c3c1O[C@H]1[C@@]4(OC)CC[C@@]5(C[C@@H]4c4ccc(N6CCCC6)cc4)[C@@H](C2)N(CC2CC2)CC[C@]315 | 3.1
COc1ccc2c3c1O[C@H]1[C@@]4(OC)CC[C@@]5(C[C@@H]4c4ccc(NC(C)=O)cc4)[C@@H](C2)N(CC2CC2)CC[C@]315 | 27.7
CNc1ccc([C@H]2C[C@@]34CC[C@]2(OC)[C@@H]2Oc5c(OC)ccc6c5[C@@]23CCN(CC2CC2)[C@@H]4C6)cc1 | 4.7
COc1ccc2c3c1O[C@H]1[C@@]4(OC)CC[C@@]5(C[C@@H]4c4ccc(N6CCN(CC7CC7)CC6)cc4)[C@@H](C2)N(CC2CC2)CC[C@]315 | 3.6
COc1ccc2c3c1O[C@H]1[C@@]4(OC)CC[C@@]5(C[C@@H]4c4ccc(NCC(N)=O)cc4)[C@@H](C2)N(CC2CC2)CC[C@]315 | 3.6
COc1ccc2c3c1O[C@H]1[C@@]4(OC)CC[C@@]5(C[C@@H]4c4ccc(N6CCN(C(C)=O)CC6)cc4)[C@@H](C2)N(CC2CC2)CC[C@]315 | 0.2
COc1ccc2c3c1O[C@H]1[C@@]4(OC)CC[C@@]5(C[C@@H]4c4ccc(N6CCN(S(=O)(=O)c7ccc(C)cc7)CC6)cc4)[C@@H](C2)N(CC2CC2)CC[C@]315 | > 3.2
COc1ccc2c3c1O[C@H]1[C@@]4(OC)CC[C@@]5(C[C@@H]4c4ccc(N6CCN(C(=O)c7ccccc7)CC6)cc4)[C@@H](C2)N(CC2CC2)CC[C@]315 | 0.5
COc1ccc2c3c1O[C@H]1[C@@]4(OC)CC[C@@]5(C[C@@H]4c4ccc(NCCN(C)C)cc4)[C@@H](C2)N(CC2CC2)CC[C@]315 | 10.6
COc1ccc2c3c1O[C@H]1[C@@]4(OC)CC[C@@]5(C[C@@H]4c4ccc(NCC6CC6)cc4)[C@@H](C2)N(CC2CC2)CC[C@]315 | 4.5
COc1ccc2c3c1O[C@H]1[C@@]4(OC)CC[C@@]5(C[C@@H]4c4ccc(N6CCNCC6)cc4)[C@@H](C2)N(CC2CC2)CC[C@]315 | 10.3
CCNc1ccc([C@H]2C[C@@]34CC[C@]2(OC)[C@@H]2Oc5c(OC)ccc6c5[C@@]23CCN(CC2CC2)[C@@H]4C6)cc1 | 2.5
COc1ccc2c3c1O[C@H]1[C@@]4(OC)CC[C@@]5(C[C@@H]4c4ccc(N)cc4)[C@@H](C2)N(CC2CC2)CC[C@]315 | 5.2
CCCNc1ccc([C@H]2C[C@@]34CC[C@]2(OC)[C@@H]2Oc5c(OC)ccc6c5[C@@]23CCN(CC2CC2)[C@@H]4C6)cc1 | 6.8
COc1ccc2c3c1O[C@H]1[C@@]4(OC)CC[C@@]5(C[C@@H]4c4ccc(NC(=O)c6ccccc6)cc4)[C@@H](C2)N(CC2CC2)CC[C@]315 | 284
CCOC(=O)CCNc1ccc([C@H]2C[C@@]34CC[C@]2(OC)[C@@H]2Oc5c(OC)ccc6c5[C@@]23CCN(CC2CC2)[C@@H]4C6)cc1 | 0.9
COc1ccc2c3c1O[C@H]1[C@@]4(OC)CC[C@@]5(C[C@@H]4c4ccc(NC=O)cc4)[C@@H](C2)N(CC2CC2)CC[C@]315 | 30.8

Assay: Selectivity index, ratio of EC50 for agonist activity at rat DOR expressed in CHO cell membranes assessed as stimulation of [35S]GTPgammaS binding by liquid scintillation counting to EC50 for agonist activity at human KOR expressed in CHO cell membranes assessed as stimulation of [35S]GTPgammaS …

Compound | Ratio EC50
COc1ccc2c3c1O[C@H]1[C@@]4(OC)CC[C@@]5(C[C@@H]4c4ccc(N)cc4)[C@@H](C2)N(CC2CC2)CC[C@]315 | 1.87
COc1ccc2c3c1O[C@H]1[C@@]4(OC)CC[C@@]5(C[C@@H]4c4ccc(NC(=O)c6ccccc6)cc4)[C@@H](C2)N(CC2CC2)CC[C@]315 | > 300
